In PMC9980535 (2023) one finds EC50 data, which are given here for two molecules.

This test concerns the target T1, recombinant T18.1 T-antigen (backbone pilin) of group A Streptococcus (Streptococcus pyogenes (group A …, intramolecular isopeptide bonds within each Ig-like domain)).
T1 chain: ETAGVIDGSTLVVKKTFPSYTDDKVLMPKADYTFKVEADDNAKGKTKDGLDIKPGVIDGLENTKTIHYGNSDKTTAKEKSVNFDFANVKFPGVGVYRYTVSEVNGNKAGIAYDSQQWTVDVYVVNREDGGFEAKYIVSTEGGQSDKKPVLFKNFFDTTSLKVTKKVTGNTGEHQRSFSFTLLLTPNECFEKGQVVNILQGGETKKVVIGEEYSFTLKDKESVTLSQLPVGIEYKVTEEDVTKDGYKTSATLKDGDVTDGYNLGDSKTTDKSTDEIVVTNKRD
Kind of test: ELISA. In general terms: ELISA stands for enzyme-linked immunosorbent assay.

B1: E3 chimeric mouse/human Fab (Fab, V domains shown)
VH: EVQLQQSGAELVKPGASVKLSCKASGYTFTSFYMYWVKQRPGQGLEWIGGINPSNGGANFNEKFKNKATLTVDKSSSTAYMQLSSLTSEDSAVYYCTRGFYYGHWYFDVWGAGTTVTVSA
VL: DIVMTQSTSSLSASLGDRVTISCRASQDISNSLNWYQQKPDGTVKLLIHYTSRLHSGVPSRFSGSGSGTDYSLTISNLEQEDIATYFCQQVNTLPLTFGAGTKLEIK
One may read the EC50 as the concentration at which the effect is half-maximal. As to B1, the EC50 was found to be 3.1 nM.

B2: E3 full-length chimeric IgG1 (mouse variable regions on a human IgG1 backbone) (antibody, V domains shown)
VH: EVQLQQSGAELVKPGASVKLSCKASGYTFTSFYMYWVKQRPGQGLEWIGGINPSNGGANFNEKFKNKATLTVDKSSSTAYMQLSSLTSEDSAVYYCTRGFYYGHWYFDVWGAGTTVTVSA
VL: DIVMTQSTSSLSASLGDRVTISCRASQDISNSLNWYQQKPDGTVKLLIHYTSRLHSGVPSRFSGSGSGTDYSLTISNLEQEDIATYFCQQVNTLPLTFGAGTKLEIK
As for B2, the EC50 was 0.07 nM.
